Measured values from ChEMBL document CHEMBL1141597, “2-Alkyl-4-aryl-pyrimidine fused heterocycles as selective 5-HT2A antagonists” (Bioorg Med Chem Lett, 2008).

Chains of the proteins cited; added tags and fusions are not shown.
UniProt P28223, whole entry: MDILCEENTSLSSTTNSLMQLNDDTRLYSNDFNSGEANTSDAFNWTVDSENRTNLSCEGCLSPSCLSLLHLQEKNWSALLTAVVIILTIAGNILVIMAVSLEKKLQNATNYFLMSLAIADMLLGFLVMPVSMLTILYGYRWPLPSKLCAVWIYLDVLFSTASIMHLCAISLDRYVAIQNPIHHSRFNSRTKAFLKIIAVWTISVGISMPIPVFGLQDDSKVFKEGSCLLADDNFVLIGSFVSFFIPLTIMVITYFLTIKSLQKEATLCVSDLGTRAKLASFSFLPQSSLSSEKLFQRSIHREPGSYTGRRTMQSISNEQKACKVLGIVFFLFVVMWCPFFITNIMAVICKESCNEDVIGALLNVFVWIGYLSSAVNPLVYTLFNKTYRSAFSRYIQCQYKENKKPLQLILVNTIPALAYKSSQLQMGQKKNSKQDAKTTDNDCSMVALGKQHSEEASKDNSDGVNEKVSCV

Target: 5-hydroxytryptamine receptor 2A (Homo sapiens, UniProt P28223)
Experiment: Displacement of [3H]ketanserin from human recombinant 5HT2A receptor expressed in mouse NIH3T3 cells
Type: cell-based

Fc1ccc(-c2nc(Cc3ccccc3)nc3c2CNCCC3)cc1
Ki: 130 nM

CC(C)Cc1nc2c(c(-c3ccc(F)cc3)n1)CNCC2
Ki: 29 nM
